# Values quoted from earlier work, collected in patent publication US20170007595A1, “NSD3 INHIBITORS FOR TREATMENT OF CANCERS” (THE BRIGHAM AND WOMEN'S HOSPITAL, INC., priority 2014, published 2017).
# pIC50: −log10 of the molar value.
# Test system: BET proteins
# Conditions: cited from earlier work
smiles,measurement,value
CCNC(=O)C[C@@H]1N=C(c2ccc(Cl)cc2)c2cc(OC)ccc2-n2c(C)nnc21 [I-BET-762],pIC50,~7.46
